US7402706B2, “Polyisoprenylated benzophenones and their isomers as inhibitors of histone acetyltransferases and uses thereof” (priority 2003, dated 2008)
pIC50: −log10 of the molar value.

Chains of the proteins cited; added tags and fusions are not shown.
UniProt Q09472, whole entry: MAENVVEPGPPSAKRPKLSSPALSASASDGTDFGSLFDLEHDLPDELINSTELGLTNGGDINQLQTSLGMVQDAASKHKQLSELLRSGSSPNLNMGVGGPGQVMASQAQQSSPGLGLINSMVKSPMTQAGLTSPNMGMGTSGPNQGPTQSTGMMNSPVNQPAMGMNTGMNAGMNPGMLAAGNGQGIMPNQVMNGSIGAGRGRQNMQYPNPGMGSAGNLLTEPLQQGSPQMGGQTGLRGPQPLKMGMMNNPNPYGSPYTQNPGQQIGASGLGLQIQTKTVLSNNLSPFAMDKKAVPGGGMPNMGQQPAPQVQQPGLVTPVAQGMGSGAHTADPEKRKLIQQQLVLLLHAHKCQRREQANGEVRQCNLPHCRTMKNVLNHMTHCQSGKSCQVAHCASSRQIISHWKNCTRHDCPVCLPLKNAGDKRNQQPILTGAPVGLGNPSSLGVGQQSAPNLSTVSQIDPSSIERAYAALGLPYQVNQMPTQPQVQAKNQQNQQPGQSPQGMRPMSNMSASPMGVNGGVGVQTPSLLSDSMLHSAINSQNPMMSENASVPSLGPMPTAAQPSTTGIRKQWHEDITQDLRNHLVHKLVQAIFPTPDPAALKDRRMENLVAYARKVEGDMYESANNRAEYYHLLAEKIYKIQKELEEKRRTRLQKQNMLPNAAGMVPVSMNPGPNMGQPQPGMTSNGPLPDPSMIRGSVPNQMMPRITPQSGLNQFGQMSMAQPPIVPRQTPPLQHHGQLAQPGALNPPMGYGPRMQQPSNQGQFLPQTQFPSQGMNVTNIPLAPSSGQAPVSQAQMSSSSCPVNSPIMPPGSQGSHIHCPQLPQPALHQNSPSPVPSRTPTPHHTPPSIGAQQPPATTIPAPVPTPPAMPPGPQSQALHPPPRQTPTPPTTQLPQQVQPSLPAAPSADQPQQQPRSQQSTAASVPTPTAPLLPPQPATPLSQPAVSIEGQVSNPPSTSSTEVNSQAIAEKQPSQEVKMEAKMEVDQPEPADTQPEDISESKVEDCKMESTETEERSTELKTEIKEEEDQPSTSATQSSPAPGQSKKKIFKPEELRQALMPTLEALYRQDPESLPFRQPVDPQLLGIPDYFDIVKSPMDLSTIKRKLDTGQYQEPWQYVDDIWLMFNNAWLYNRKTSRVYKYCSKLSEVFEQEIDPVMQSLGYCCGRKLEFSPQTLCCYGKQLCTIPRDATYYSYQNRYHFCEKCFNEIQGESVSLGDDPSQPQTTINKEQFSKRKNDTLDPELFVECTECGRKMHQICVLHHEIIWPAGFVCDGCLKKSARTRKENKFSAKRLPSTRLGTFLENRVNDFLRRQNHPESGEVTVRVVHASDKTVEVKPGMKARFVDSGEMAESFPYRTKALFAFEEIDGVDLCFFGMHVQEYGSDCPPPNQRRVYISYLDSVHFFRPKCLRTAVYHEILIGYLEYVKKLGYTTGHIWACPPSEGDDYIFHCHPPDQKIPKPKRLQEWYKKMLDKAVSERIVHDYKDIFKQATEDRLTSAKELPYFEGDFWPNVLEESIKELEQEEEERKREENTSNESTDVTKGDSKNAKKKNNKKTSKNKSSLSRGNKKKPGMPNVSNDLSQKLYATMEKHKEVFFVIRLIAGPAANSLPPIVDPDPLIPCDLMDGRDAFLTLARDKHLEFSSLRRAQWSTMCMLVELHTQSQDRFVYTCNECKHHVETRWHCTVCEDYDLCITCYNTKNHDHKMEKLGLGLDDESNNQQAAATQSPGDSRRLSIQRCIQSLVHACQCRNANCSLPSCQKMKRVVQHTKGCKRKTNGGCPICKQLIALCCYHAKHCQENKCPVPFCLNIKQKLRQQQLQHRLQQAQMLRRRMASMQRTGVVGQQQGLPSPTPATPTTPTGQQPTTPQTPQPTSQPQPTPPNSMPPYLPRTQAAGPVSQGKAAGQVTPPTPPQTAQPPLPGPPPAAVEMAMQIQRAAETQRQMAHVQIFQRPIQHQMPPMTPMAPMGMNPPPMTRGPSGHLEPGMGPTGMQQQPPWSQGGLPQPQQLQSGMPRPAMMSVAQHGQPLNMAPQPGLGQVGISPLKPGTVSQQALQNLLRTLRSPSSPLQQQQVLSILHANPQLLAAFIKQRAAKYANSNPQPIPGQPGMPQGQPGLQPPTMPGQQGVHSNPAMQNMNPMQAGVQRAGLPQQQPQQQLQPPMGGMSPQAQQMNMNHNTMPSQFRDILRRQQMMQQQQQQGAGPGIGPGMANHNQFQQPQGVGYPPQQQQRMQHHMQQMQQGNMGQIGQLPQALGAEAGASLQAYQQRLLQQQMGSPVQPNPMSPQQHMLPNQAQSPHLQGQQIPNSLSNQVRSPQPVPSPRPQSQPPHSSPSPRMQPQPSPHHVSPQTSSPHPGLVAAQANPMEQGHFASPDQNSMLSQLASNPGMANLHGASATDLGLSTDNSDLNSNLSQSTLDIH

Target: p300 (Homo sapiens, UniProt Q09472)
Assay: Histone acetyl transferase (HAT) assay, p300
Format: biochemical

## 3-(3,4-Dihydroxy-benzoyl)-4-hydroxy-5-(2-isopropenyl-4-methyl -pent-3-enyl)-8,8-dimethyl-1-(3-methyl-but-2-enyl)-7-(4-methyl-pent-3-enyl) -bicyclo[3.3.1]non-3-ene-2,9-dione [garcinol]
  overall type of inhibition of p300 (kinetic analysis): mixed type of inhibitor
20 μM garcinol
  p300 mediated acetylation of histone H3: could not abolish
20 μM garcinol, SDS-PAGE and fluorography
  [3H]-labelled histone H3 still detected: 5-10%
Constant [3H]-acetyl CoA
  type of inhibition of p300, changing concentration of core histones: competitive inhibitor
Constant core histones
  type of inhibition of p300, changing concentration of acetyl CoA: uncompetitive type of inhibitor
Recombinant p300, HeLa core histones as substrate, filter binding, read-out: IC50 for p300 acetyltransferase activity
  pIC50: ~5.15
